{"source": "patent US20110098283A1", "about": "“3-CINNOLINECARBOXAMIDE DERIVATIVES AND THEIR USE FOR TREATING CANCER” (ASTRAZENECA AB, priority 2007, published 2011)", "target": "T1, CSF-1R (His-tagged kinase domain, amino acids 568-912) (Homo sapiens, UniProt P07333)", "T1 construct": "The His-tagged kinase domain of CSF-1R (i.e., amino acids 568-912, GeneBank ID NM_005211); His; made in house; host or cells: baculovirus infected SF+Express insect cells", "T1 sequence (P07333 568-912)": "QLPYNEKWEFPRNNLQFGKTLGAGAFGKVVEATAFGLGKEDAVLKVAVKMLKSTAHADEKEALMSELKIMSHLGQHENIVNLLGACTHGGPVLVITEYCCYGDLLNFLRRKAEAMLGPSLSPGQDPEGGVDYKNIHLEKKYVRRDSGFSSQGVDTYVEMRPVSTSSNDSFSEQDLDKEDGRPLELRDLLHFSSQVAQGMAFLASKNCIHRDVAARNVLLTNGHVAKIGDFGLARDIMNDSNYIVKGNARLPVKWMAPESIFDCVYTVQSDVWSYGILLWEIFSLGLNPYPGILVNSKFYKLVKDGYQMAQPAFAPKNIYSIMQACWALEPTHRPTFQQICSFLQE", "assay": "Assay 1: CSF-1R in vitro AlphaScreen Assay", "assay_type": "biochemical", "protocol": "Assay 1: CSF-1R in vitro AlphaScreen Assay\nActivity of purified CSF-1R was determined in vitro using an Amplified Luminescent Proximity Homogeneous Assay (ALPHA) (Perkin Elmer), which measures phosphorylation of the CSF-1R substrate, biotinylated poly-glutamine-tyrosine peptide (pEY-HTRF CisBio 61GT0BLD), as described below.\nThe phosphorylation of the CSF-1R substrate in the presence and absence of the compound of interest was determined. […] Plates were incubated at 25° C. for 18 hours in the dark. Phosphorylated substrate was detected by an EnVision plate reader (Perkin Elmer) 680 nm excitation, 520-620 nm emission. Data was graphed and IC50s calculated using Excel Fit (Microsoft).", "data": [{"smiles": "CCOc1cc2nnc(C(N)=O)c(Nc3ccc(F)cc3F)c2cc1N1CCN(C)CC1", "note": "[Example 7, 4-[(2,4-Difluorophenyl)amino]-7-ethoxy-6-(4-methylpiperazin-1-yl)cinnoline-3-carboxamide]", "values": [{"measurement": "IC50", "result": "< 4", "unit": "nM"}]}]}
